# Source: patent US20050282910A1, “Methods of application of chemical compounds having therapeutic activities in treating cancers” (priority 2003, published 2005)
# How the values were obtained:
# K562/adr = experiment: Reversal of drug resistance by ethanol extracts of Schisandra chinensis fruit, MTT cytotoxicity of anticancer agents; type: cell-based, human; conditions: by ethanol extracts (50 μg/ml)
# [1] = test system: human leukemia MDR cell line K562/adr; experiment: Reversal of P-glycoprotein-mediated drug resistance by Schisandrin A, Schisandrol A, Schisantherin A, MTT cytotoxicity of anticancer agents; type: cell-based
# [2] = test system: human epidermoid carcinoma MDR cell line KBv200
# [3] = test system: human breast cancer MDR cell line MCF7/adr
# KBv200 = experiment: Reversal of drug resistance by ethanol extracts of Schisandra chinensis fruit, MTT cytotoxicity of anticancer agents; conditions: by ethanol extracts (50 μg/ml)
# MCF7/adr = experiment: as above; conditions: by ethanol extracts (50 μg/ml)
compound,measurement,setting,value
COc1cccc2c1C(=O)c1c(O)c3c(c(O)c1C2=O)C[C@@](O)(C(C)=O)C[C@@H]3O[C@H]1C[C@H](N)[C@H](O)[C@H](C)O1 [Daunorubicin],RF (reversal folds of drug resistance),K562/adr,10.7
same,RF (reversal folds of drug resistance),[1]; by Schisandrin A (10 μg/ml),71.2
same,RF (reversal folds of drug resistance),[1]; by Schisantherin A (10 μg/ml),18.3
same,RF (reversal folds of drug resistance),[2]; by Schisandrin A (10 μg/ml),10.9
same,RF (reversal folds of drug resistance),[2]; by Schisantherin A (10 μg/ml),7.9
same,RF (reversal folds of drug resistance),[3]; by Schisandrin A (10 μg/ml),10.4
same,RF (reversal folds of drug resistance),[3]; by Schisantherin A (10 μg/ml),13.8
same,RF (reversal folds of drug resistance),KBv200,10
same,RF (reversal folds of drug resistance),MCF7/adr,10.3

# Where two headings read alike, the source gives them in different places.
